Legend:
[1] = Ratio of drug uptake in olfactory bulb to striatum in Sprague-Dawley rat at 1 to 3 MBq, iv after 30 mins by gamma counting; settings: in vivo, 0.5 h
[2] = Ratio of drug uptake in striatum in Sprague-Dawley rat at 1 to 3 MBq, iv after 2 mins to drug uptake in striatum in Sprague-Dawley rat at 1 to 3 MBq, iv after 30 mins; settings: in vivo

| SMILES | Ratio [1] | Ratio [2] |
| --- | --- | --- |
| O=C(C1CCCc2c1c1ccccc1n2CC[18F])N1CCCC1 (stereo unspecified) | 1.33 | 3.88 |
| COc1ccc(OC)c(CN(C(=O)C[18F])c2ccccc2Oc2ccccc2)c1 | 3.5 | 4.64 |
| CCN(CC)C(=O)C1CCCc2c1c1cc(F)ccc1n2CC[18F] (stereo unspecified) | 3.72 | 4.27 |

Source: ChEMBL document CHEMBL1944627, “[¹⁸F]GE-180: a novel fluorine-18 labelled PET tracer for imaging Translocator protein 18 kDa (TSPO)” (Bioorg Med Chem Lett, 2012)
